Data published in US10413607B2, “Antibody specifically binding to ErbB3 and use thereof” (ISU ABXIS CO., LTD., priority 2015, dated 2019).

Test system: DiFi colon cancer cells
Experiment: Cetuximab resistance, DiFi colorectal cancer cell proliferation with HRG
Type: cell-based
Details: about 72 hours, FIG. 11
Method: Cetuximab is effective in suppressing cancer cell proliferation in DiFi colorectal cancer cells, but loses its efficacy in the presence of HRG due to the activation of an ErbB3 signal transduction pathway. An investigation was carried out to assess the ability of the screened antibodies to overcome resistance to Cetuximab and impart cancer cell proliferation suppression effects.
In particular, DiFi colon cancer cells were incubated in RPMI-1640 medium (Invitrogen) including an antibiotic (Penicillin-Streptomycin, Invitrogen) and 10% FBS. About 1×10^4 DiFi cells were inoculated onto a 96-well plate and incubated at 37° C. under 5% CO2 conditions for about 24 hours. Cetuximab and anti-ErbB3 antibody were mixed together in equal concentrations of 200 μg/mL to obtain an Cetuximab/anti-ErbB3 antibody solution, which was then mixed with an equal amount of HRG (40 ng/mL). The Cetuximab/anti-ErbB3 antibody/HRG solution was applied to a 96-well plate and incubated at 37° C. under 5% CO2 conditions for about 72 hours. Cells cultured without antibodies and HRG were used as a negative control group. The number of viable cells was measured using a CellTiter-Glo luminescent cell viability assay (Promega). Cell proliferation rates were calculated based on the measured results. The results are shown in FIG. 11, in which *** denotes t-test results (p<0.001).

Cetuximab was tested, and the “cell proliferation suppression effect” value was “reduced in the presence of HRG”.
